# From ChEMBL document CHEMBL4014310, “Selective IKur Inhibitors for the Potential Treatment of Atrial Fibrillation: Optimization of the Phenyl Quinazoline Series Leading to Clinical Candidate 5-[5-Phenyl-4-(pyridin-2-ylmethylamino)quinazolin-2-yl]pyridine-3-sulfonamide” (J Med Chem, 2017)
# Sequences of proteins named here, by UniProt entry; tags and fusion partners are left off.
# UniProt P05177, whole entry: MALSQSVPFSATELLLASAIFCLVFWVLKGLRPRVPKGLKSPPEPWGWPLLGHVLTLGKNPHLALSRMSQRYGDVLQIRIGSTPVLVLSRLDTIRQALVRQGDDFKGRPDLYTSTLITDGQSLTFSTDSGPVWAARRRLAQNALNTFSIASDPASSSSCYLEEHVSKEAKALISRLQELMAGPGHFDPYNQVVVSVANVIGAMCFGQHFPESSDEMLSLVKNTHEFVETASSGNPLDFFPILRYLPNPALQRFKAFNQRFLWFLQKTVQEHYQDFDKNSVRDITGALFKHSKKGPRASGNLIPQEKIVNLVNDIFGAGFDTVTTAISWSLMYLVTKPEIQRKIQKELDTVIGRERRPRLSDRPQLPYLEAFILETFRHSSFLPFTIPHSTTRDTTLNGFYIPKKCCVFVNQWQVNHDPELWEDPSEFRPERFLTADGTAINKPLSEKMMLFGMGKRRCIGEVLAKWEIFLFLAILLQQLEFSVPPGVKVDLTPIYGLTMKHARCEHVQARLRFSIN
# Biological target: Cytochrome P450 1A2 (Homo sapiens, UniProt P05177)
# Experiment: Inhibition of CYP1A2 (unknown origin)
# Type: ADME
structure (smiles),measurement,value
c1ccc(-c2cccc3nc(-c4cccnc4)nc(NCc4ccccn4)c23)cc1,IC50,< 10 µM
